The source of these data is publication PMC1919509.

For orientation: stoichiometry N means the number of molecules, sites or subunits per partner or assembly.

This experiment has as its target T1, Single-stranded DNA binding protein (SSB), over-expressed recombinant (E. coli), P0AGE0.
T1 chain: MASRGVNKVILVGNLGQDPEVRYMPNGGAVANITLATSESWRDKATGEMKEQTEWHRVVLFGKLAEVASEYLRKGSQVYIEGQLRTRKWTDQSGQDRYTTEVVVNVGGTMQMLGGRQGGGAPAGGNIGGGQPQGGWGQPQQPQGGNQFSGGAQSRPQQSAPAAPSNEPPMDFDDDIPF
In words: cross-linking. Conditions: remark: other sources report otherwise.

B1: Single-stranded DNA binding protein (SSB), over-expressed recombinant, P0AGE0 1-178 (natural protein)
chain: MASRGVNKVILVGNLGQDPEVRYMPNGGAVANITLATSESWRDKATGEMKEQTEWHRVVLFGKLAEVASEYLRKGSQVYIEGQLRTRKWTDQSGQDRYTTEVVVNVGGTMQMLGGRQGGGAPAGGNIGGGQPQGGWGQPQQPQGGNQFSGGAQSRPQQSAPAAPSNEPPMDFDDDIPF
B1: the stoichiometry N turned out to be 4.
